Antibody variant affinities, Ab-14 heavy chain, assay B

Target peptide (SARS-CoV-2 spike, HR2 region): PDVDLGDISGINAS

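The parent was found by panning a naive human phage display library on the peptide. The variants were designed computationally from a first round of random CDR variants and then made and measured. Their group label is 14H_GPLM_Gen (GPLM: also part of the Gaussian process libraries; Gen: genetic algorithm; a sequence that several methods proposed may carry one label only). The assay is AlphaSeq: two haploid yeast populations carry antibody and antigen on their surface. Pairs that bind mate more often; barcode pairs of the diploids are counted by sequencing. A regression on co-assayed BCL2-family reference pairs converts the normalised counts of each replicate to an apparent Kd. Mating was done six times.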

Ab-14 is the parent antibody, in scFv form: VH, then a (GGGGS)3 linker, then VL. The light chain is unchanged in all variants.
VH: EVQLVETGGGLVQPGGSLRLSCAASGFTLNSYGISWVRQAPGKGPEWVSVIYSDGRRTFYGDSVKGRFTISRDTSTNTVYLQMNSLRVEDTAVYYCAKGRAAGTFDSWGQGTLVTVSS
VL: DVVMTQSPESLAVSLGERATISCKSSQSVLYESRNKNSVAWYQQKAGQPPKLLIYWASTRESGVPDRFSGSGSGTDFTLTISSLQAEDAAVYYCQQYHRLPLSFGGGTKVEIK

Variants are written as CDR1, CDR2 and CDR3 of the heavy chain (limits as in the source). Parent: GFTLNSYGIS, VIYSDGRRTFYGDSVK, GRAAGTFDS.
Numbers give log10(Kd / nM), so 0 is 1 nM and 3 is 1 µM. Smaller is tighter.
An entry "ND" has no value in the source: the pair was not observed among the diploids in that replicate. This suggests poor binding but is not conclusive.
Background: pairings of all heavy chain designs with three empty control strains gave a value in 1% of cases (median 2.08, 5th percentile 0.84). Values in that range, when seen in few replicates, are hard to tell from nonspecific mating. Also given: how often the same scFv was detected with the empty control strains, with their mean in brackets.
The parent sequence was in this pool as ten entries: three were never detected, three once, and four in most replicates, with averages from 0.34 to 2.37.
A sequence measured in both rounds can read differently, since the two assays cover different ranges.
In the paper, a design with two or fewer of six values counts as a poor binder.

| # | CDR-H1 | CDR-H2 | CDR-H3 | log10 Kd (nM) by replicate | signal with controls |
|---|---|---|---|---|---|
| 1 | GFDLNSYGIS | VIYSDGRRTFYGDSVK | GKAAGTFDC | ND ND ND ND ND ND | 0 of 18 |
| 2 | GFELNEYGIS | VIYSDGRRTFYGDSVK | GQAAGTFDL | 0.60 0.52 0.29 0.16 0.36 0.52 | 1 of 18 (4.23) |
| 3 | GFSLNSYGIS | VIYSDGRRTFYADSVK | GSEAGTFDS | 0.28 0.14 0.16 -0.12 0.46 0.00 | 0 of 18 |
| 4 | GFNLNSYGIS | VIYSDGRRTFYGDSVK | GSTAGTFDS | ND ND ND ND ND ND | 0 of 18 |
| 5 | YFSLNDYGIS | VIYSDGRRTFYGDSVK | GRTAGTFDS | ND 2.91 ND 1.42 1.42 2.90 | 0 of 18 |
| 6 | GFTLNSYGIS | VIYSDGRRTFYGDSVK | GRVAGTFDN | ND ND ND 2.41 ND ND | 0 of 18 |
| 7 | GFSLNSYGIS | VIYSDGRRTFYGDSVK | GRTAGTFDH | ND ND ND ND ND ND | 0 of 18 |
| 8 | LFSLNSYGIS | VIYSDGRRTFYADSVK | GRTAGTFDS | 0.82 0.80 0.91 1.38 1.17 0.90 | 0 of 18 |
| 9 | GFDLNSYGIS | VIYSDGRRTFYADKVK | GRTAGTFDS | -0.17 -0.41 0.25 0.02 -0.15 0.26 | 1 of 18 (1.27) |
| 10 | KFSLNSYGIS | VIYSDGRRTAYGDSVK | GRAAGTFDS | 1.50 1.32 1.45 1.09 1.79 1.42 | 1 of 18 (1.70) |
| 11 | GFSLNEYGIS | VIYSDGRKTFYGDSVK | GRTAGTFDS | ND -0.64 ND 0.34 1.14 0.01 | 0 of 18 |
| 12 | GFSLNSYGIS | VIYSDGRRTFYGDSVK | GKVAGTFDS | 0.27 -0.07 0.65 -0.50 0.38 -0.33 | 0 of 18 |
| 13 | GFSLNSYGIS | VIYSDGRRTFYGDSVK | GVEAGTFDT | -0.31 -0.38 -0.51 -0.49 -0.41 -0.21 | 2 of 18 (3.59) |
| 14 | GFSLNSYGIS | VIYSDGRRTFYIDTVK | GQAAGTFDS | ND ND ND ND ND ND | 0 of 18 |
| 15 | GFSLNSYGIS | VIYSDGRRTFYKDSVK | GWAAGTFDS | ND 0.63 0.74 0.24 ND ND | 0 of 18 |
| 16 | GFTLESYGIS | VIYSDGRRTFYADQVK | GRAAGTFDS | 1.60 1.22 1.98 1.31 2.58 0.66 | 2 of 18 (1.81) |
| 17 | GFRLNEYGIS | VIYSDGRRTFYGDSVK | GQAAGTFDS | 1.95 1.39 0.99 1.68 1.74 1.86 | 0 of 18 |
| 18 | GFSLNSYGIS | VIYSDGRRTFYGDSVK | GKAAGTFDN | 1.41 1.71 ND 1.86 1.93 1.13 | 0 of 18 |
| 19 | GFSLNMYGIS | VIYSDGRRTFYGDSVK | GQAAGTFDS | 0.95 1.45 1.16 1.83 1.57 1.19 | 0 of 18 |
| 20 | GFTLNSYGIS | VIYSDGVRTFYSDSVK | GEAAGTFDS | 0.72 0.37 0.15 0.08 0.36 0.66 | 0 of 18 |
| 21 | KFTLNEYGIS | VIYSDGRRTFYGDSVK | GRTAGTFDS | 1.18 2.00 1.22 ND 1.93 1.29 | 1 of 18 (1.11) |
| 22 | GFTLNSYGIS | VIYSDGKRTFYGDSVK | GWVAGTFDS | 0.36 0.35 0.82 0.28 0.68 0.48 | 0 of 18 |
| 23 | GFSLNSYGIS | VIYSDGRRTFYGDNVK | GRVAGTFDS | -0.42 ND ND ND -0.82 -0.30 | 0 of 18 |
| 24 | GFSLNSYGIS | VIYSDGQRTFYVDSVK | GQAAGTFDS | ND 2.21 2.60 ND 2.08 1.28 | 0 of 18 |
| 25 | GFSLNDYGIS | VIYSDGRRTFYGDSVK | GRTAGTFDT | -0.19 -0.29 -0.15 -0.38 -0.15 -0.16 | 1 of 18 (2.06) |
| 26 | GFGLNEYGIS | VIYSDGRRTFYADSVK | GHAAGTFDS | 0.57 0.26 -0.15 1.01 -0.13 0.43 | 0 of 18 |
| 27 | GFSLNSYGIS | VIYSDGRRTFYVDSVK | GQAAGTFDS | 0.38 -0.06 0.98 0.74 0.87 0.38 | 1 of 18 (1.29) |
| 28 | GFTLNSYGIS | VIYADGRRTFYGDSVK | GKAAGTFDQ | -0.63 -0.62 -0.67 -0.40 -0.36 -0.16 | 0 of 18 |
| 29 | GFSLNEYGIS | VIYSDGRRTWYGDSVK | GQAAGTFDS | 0.79 0.44 0.28 0.06 0.91 0.79 | 0 of 18 |
| 30 | GFSLNEYGIS | VIYSDGRRTFYGDSVK | GKAAGTFDF | 0.45 0.37 0.32 0.30 0.04 0.57 | 0 of 18 |
| 31 | GFSLNSYGIS | VIYSDGRRTAYGDSVK | GRLAGTFDS | 1.72 1.22 1.16 1.43 ND 3.12 | 1 of 18 (1.90) |
| 32 | GFNLNSYGIS | VIYSDGRRTFYFDSVK | GQTAGTFDS | ND ND ND ND ND ND | 0 of 18 |
| 33 | GFDLNSYGIS | VIYSDGRRTFYADSVK | GRSAGTFDS | ND ND ND 1.12 ND 0.71 | 1 of 18 (0.85) |
| 34 | GFDLNSYGIS | VIYSDGRRTFYHDSVK | GRLAGTFDS | 0.18 -0.15 -0.32 -0.31 -0.10 -0.39 | 1 of 18 (2.29) |
| 35 | GFDLNSYGIS | VIYSDGRRTFYGDSVK | GRTAGAFDS | 0.66 0.99 0.33 0.33 1.40 0.99 | 1 of 18 (1.77) |
| 36 | GFTLNSYGIS | VIYSDGRRTFYSDSVK | GKLAGTFDS | 0.48 0.81 1.75 0.41 1.09 0.26 | 0 of 18 |
| 37 | GFSLNSYGIS | VIYSDGRRTFYGDSVK | GEAAGTFDV | 0.69 0.63 0.87 0.61 0.24 0.90 | 2 of 18 (2.33) |
| 38 | GFTLNSYGIS | VIYSDGRRTFYSDSVK | GEAAGTFDA | 0.57 0.47 0.40 0.56 0.31 0.63 | 0 of 18 |
| 39 | GFKLNEYGIS | VIYSDGRRTFYGDSVK | GRHAGTFDS | 0.96 1.57 1.09 1.12 0.93 1.04 | 0 of 18 |

From the list, the first 4 with no signal in any replicate:

| CDR-H1 | CDR-H2 | CDR-H3 | log10 Kd (nM) by replicate | signal with controls |
|---|---|---|---|---|
| GFDLNSYGIS | VIYSDGRRTFYGDSVK | GKAAGTFDC | ND ND ND ND ND ND | 0 of 18 |
| GFNLNSYGIS | VIYSDGRRTFYGDSVK | GSTAGTFDS | ND ND ND ND ND ND | 0 of 18 |
| GFSLNSYGIS | VIYSDGRRTFYGDSVK | GRTAGTFDH | ND ND ND ND ND ND | 0 of 18 |
| GFSLNSYGIS | VIYSDGRRTFYIDTVK | GQAAGTFDS | ND ND ND ND ND ND | 0 of 18 |

Reference: Li et al. 2023, doi:10.1038/s41467-023-39022-2. File: FLAb, binding data.